{
  "source": "patent US12357802B2",
  "about": "“Self-actuating articles” (priority 2017, dated 2025)",
  "settings": "micropost tips 40% G6PD and 60% PEO 200 k, vs uncompressed powder",
  "experimental": "To perform the activity assay on G6PD, an activity assay kit (Sigma Aldrich) was used which measures the amount of oxidized glucose-6-phosphate. […] Duplicate assays were performed on the dissolved solution.",
  "data": [
    {"substance": "glucose-6-phosphate dehydrogenase", "values": [
      {"measurement": "enzymatic activity after the manufacturing process", "value": "maintain their activity"}
    ]}
  ]
}
